The values below come from patent US11147884B2, “Inhibitors of NHE-mediated antiport” (Ardelyx, Inc., priority 2017, dated 2021).

The target of this test is T1, NHE3 (Homo sapiens, UniProt P48764).
T1 construct: the increase in NHE3 expression after differentiation; endogenous in cells; host or cells: enterocytes (differentiated human ileum organoid monolayer cultures)
T1 sequence (P48764 26-834): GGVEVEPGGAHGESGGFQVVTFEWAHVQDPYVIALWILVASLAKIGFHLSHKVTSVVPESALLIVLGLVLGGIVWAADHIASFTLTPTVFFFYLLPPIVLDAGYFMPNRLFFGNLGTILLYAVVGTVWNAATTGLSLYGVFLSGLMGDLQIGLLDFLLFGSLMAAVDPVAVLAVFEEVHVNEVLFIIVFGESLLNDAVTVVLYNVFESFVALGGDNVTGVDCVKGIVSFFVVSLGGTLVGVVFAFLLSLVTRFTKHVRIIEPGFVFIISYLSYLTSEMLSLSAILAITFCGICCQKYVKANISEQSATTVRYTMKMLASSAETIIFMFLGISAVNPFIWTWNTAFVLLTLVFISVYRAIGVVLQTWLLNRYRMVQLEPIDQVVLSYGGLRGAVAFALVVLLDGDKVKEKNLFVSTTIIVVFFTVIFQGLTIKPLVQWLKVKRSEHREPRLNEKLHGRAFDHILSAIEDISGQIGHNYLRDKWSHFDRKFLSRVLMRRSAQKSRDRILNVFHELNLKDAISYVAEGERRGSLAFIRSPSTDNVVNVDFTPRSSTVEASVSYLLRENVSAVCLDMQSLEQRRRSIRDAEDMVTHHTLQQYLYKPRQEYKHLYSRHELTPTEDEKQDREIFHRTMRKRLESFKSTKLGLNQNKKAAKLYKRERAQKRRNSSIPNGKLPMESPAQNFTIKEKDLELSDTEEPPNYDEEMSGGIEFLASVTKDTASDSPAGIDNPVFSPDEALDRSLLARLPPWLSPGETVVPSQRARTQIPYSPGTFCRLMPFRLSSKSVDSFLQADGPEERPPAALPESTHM
The test is described as follows: NHE3 activity in enterocytes by intracellular pH recovery following acid loading. Type of test: cell-based.

As for FCCP, the “inhibition of NHE3 activity in enterocytes” value is reported as “neither nigericin, BAM15 nor FCCP inhibited NHE3 activity”.
